Marks after values point to notes of the source that are not given here.
Tests used:
[1] = system: APP/PS1 transgenic mice; assay: ELISA for Aβ40 and Aβ42 in brain of APP/PS1 mice given V24P(10-40)-PEI; assay type: in vivo, mouse
Protocol: (§1) APP/PS1 transgenic mice (B6C3-Tg (APPswe,PSEN1dE9) 85Dbo/Mmjax), purchased from Jackson Laboratories (USA), were bred and genotyped as described on the Jackson website. Jankowsky et al., Biomol Eng (2001) 17:157-65; Borchelt et al., Neuron (1996) 17:1005-13. The mice had access to food and water ad libitum and were kept on a 12:12 h light-dark cycle. PEI and V24P(10-40)-PEI were dissolved at a concentration of 400 μM in 100 mM NaH2PO4, 138 mM KCl, pH 5, and 4-month-old mice was given 2.5 μL of PEI (as the control) or V24P(10-40)-PEI in each nostril six days per week for the indicated period.
Briefly, the cortical or hippocampal tissue from PEI-treated or V24P(10-40)-PEI-treated APP/PS1 mice was weighed and homogenized at 4° C. in the cell extraction buffer provided in the kit, supplemented with protease inhibitor cocktail (Sigma, St. Louis, USA), then the homogenates in Eppendorf tubes were centrifuged at 13000 rpm at 4° C. for 10 min and the concentration of protein in the supernatant was measured using the microBCA protein assay (Thermo, IL, USA).
In this study, PEI was added to the C-terminus of the scavenger peptide V24P(10-40). 4-month-old APP/PS1 transgenic mice were administered with V24P(10-40)-PEI or PEI alone by nasal drops to both nostrils (1 nmole or 4 μg per nostril) six times per week. The mice were then sacrificed 4 months later and the A β contents of the brain were analyzed by ELISA.

[2] = system: APP/PS1 transgenic mice; assay: [11C]PiB microPET of APP/PS1 mice given V24P(10-40)-PEI; assay type: in vivo, mouse
Protocol: as §1
[^11C] […]
All imaging data were processed and analyzed using the PMOD 3.5 software package (Pmod Technologies, Zürich, Switzerland). The PET image dataset was converted to an absolute measure of radioactivity concentration (kBq/cc) using a phantom-derived calibration factor before being normalized to the injected dose of [^11C] […] PiB uptake in the cortex, hippocampus, amygdala, and olfactory bulb was evaluated. […]
The effect of the scavenger peptide on reducing amyloid plaque accumulation was examined in APP/PS1 mice treated with V24P(10-40)-PEI or PEI from the age of 4 months to 12 months, using micro positron emission tomography (microPET) with the radiotracer ^11C-labeled Pittsburgh compound B ([^11C] PiB), which binds to A β plaques. […] Quantification of [^11C]

[3] = intranasal 6 times a week for 4 months, 4-m to 8-m, ELISA
[4] = intranasal, four months, 4 to 8 months of age

For “YEVHHQKLVFFAED^DPGSNKGAIIGLMVGGVV-PEI (PEI conjugate; D-proline) [V24P(10-40)-PEI]”, the “Aβ in hippocampus (% of control): Aβ40” value [1, 3] was “Aβ40 28%^b % of control”, the “Aβ in hippocampus (% of control): Aβ42” value [1, 3] was “Aβ42 60% of control” and the “reduction of Aβ40 in the cortex” value ([1]; intranasal, four months) was 87%. For the same substance, the “reduction of Aβ42 in the cortex” value ([1]; intranasal, four months) was 32%, the “reduction of Aβ40 in the hippocampus” value [1, 4] was 72% and the “reduction of Aβ42 in the hippocampus” value [1, 4] was 40%. The “[11C]PiB levels / amyloid plaque formation” value ([2]; cortex, hippocampus, amygdala, olfactory bulb, treated 4 to 12 months of age) was “significant reduction in amyloid plaque formation” and the “Aβ in hippocampus (% of control)” value ([2]; intranasal 6 times a week for 8 months, 4-m to 12-m, microPET) was 81%^c % of control.
